Assay results as given in PubChem BioAssay (NCI).
“And” between values parts separate entries of the source, which are not always exact repeats. Equal values may be shown once. This is a selection; strong and weak results do not stand in their true shares.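 Negative percent growth values reflect cell death: -40 means 40% of the cells present at the start died, and -100 means all died.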 The source made the active and inactive calls. Rule for the calls: active = growth percent below 10; inactive = the rest.

Legend:
Experiment in all cases: NCI-60 one-dose screen, 48 h (100 = growth as untreated, 0 = no growth, -100 = all killed)
Details in all cases: 10 µM
MOLT-4 leukemia = tested on: MOLT-4 leukemia
SR leukemia = tested on: SR leukemia
RPMI-8226 leukemia = tested on: RPMI-8226 leukemia
OVCAR-8 ovarian = tested on: OVCAR-8 ovarian
OVCAR-5 ovarian = tested on: OVCAR-5 ovarian
OVCAR-4 ovarian = tested on: OVCAR-4 ovarian
SK-OV-3 ovarian = tested on: SK-OV-3 ovarian
OVCAR-3 ovarian = tested on: OVCAR-3 ovarian
HS 578T breast = tested on: HS 578T breast
NCI/ADR-RES ovarian = tested on: NCI/ADR-RES ovarian
T-47D breast = tested on: T-47D breast
BT-549 breast = tested on: BT-549 breast
MDA-MB-435 melanoma = tested on: MDA-MB-435 melanoma
SW-620 colon = tested on: SW-620 colon
MCF7 breast = tested on: MCF7 breast
HCT-116 colon = tested on: HCT-116 colon
HCC-2998 colon = tested on: HCC-2998 colon
KM12 colon = tested on: KM12 colon
IGROV1 ovarian = tested on: IGROV1 ovarian

Measured: growth

CN1CCN(CCOC(=O)C(O)(c2ccccc2)c2ccccc2)CC1
inactive: MOLT-4 leukemia 114% | SR leukemia 127% | RPMI-8226 leukemia 114% | OVCAR-8 ovarian 110% | OVCAR-5 ovarian 93% | OVCAR-4 ovarian 99% | SK-OV-3 ovarian 108% | OVCAR-3 ovarian 98.1% | HS 578T breast 97.6% | NCI/ADR-RES ovarian 93.1% | T-47D breast 100% | BT-549 breast 103% | MDA-MB-435 melanoma 102% | SW-620 colon 97.1% | MCF7 breast 93.2% | HCT-116 colon 99.7% | HCC-2998 colon 83.6% | KM12 colon 93.1%

NN/C(N)=N/[N+](=O)[O-]
inactive: MOLT-4 leukemia 96.1% | SR leukemia 97.3% | RPMI-8226 leukemia 115% | OVCAR-8 ovarian 108% | OVCAR-5 ovarian 102% | OVCAR-4 ovarian 131% | SK-OV-3 ovarian 105% | IGROV1 ovarian 103% | OVCAR-3 ovarian 121% | NCI/ADR-RES ovarian 96.7% | T-47D breast 93.9% | BT-549 breast 90.9% | MDA-MB-435 melanoma 106% | SW-620 colon 108% | HCT-116 colon 98.9% | HCC-2998 colon 94.7% | KM12 colon 111%

O=[N+]([O-])c1cc([N+](=O)[O-])c(Nc2nnnn2CCO)c([N+](=O)[O-])c1
inactive: MOLT-4 leukemia 84.5% | SR leukemia 71.9% | RPMI-8226 leukemia 99.7% | OVCAR-8 ovarian 101% | OVCAR-5 ovarian 113% | OVCAR-4 ovarian 99.2% | SK-OV-3 ovarian 116% | IGROV1 ovarian 113% | OVCAR-3 ovarian 121% | HS 578T breast 99.6% | NCI/ADR-RES ovarian 102% | T-47D breast 106% | MDA-MB-435 melanoma 103% | SW-620 colon 117% | MCF7 breast 94.9% | HCT-116 colon 105% | HCC-2998 colon 109% | KM12 colon 114%

Nc1cc([As](Cl)Cl)cc(N)c1O
inactive: MOLT-4 leukemia 75.3% | SR leukemia 39.5% | RPMI-8226 leukemia 40% | OVCAR-8 ovarian 62.2% | OVCAR-5 ovarian 134% | OVCAR-4 ovarian 75% | SK-OV-3 ovarian 99.9% | IGROV1 ovarian 51.9% | OVCAR-3 ovarian 68.4% | NCI/ADR-RES ovarian 67.1% | T-47D breast 65.5% | BT-549 breast 42.5% | MDA-MB-435 melanoma 44.5% | SW-620 colon 50.8% | MCF7 breast 17.8% | HCT-116 colon 26.2% | HCC-2998 colon 88.4% | KM12 colon 95.5%

CN(C)CCS
inactive: MOLT-4 leukemia 112% and 114% | SR leukemia 119% and 97.8% | RPMI-8226 leukemia 108% and 102% | OVCAR-8 ovarian 124% and 97.5% | OVCAR-5 ovarian 108% and 95.6% | OVCAR-4 ovarian 116% and 113% | SK-OV-3 ovarian 110% and 109% | OVCAR-3 ovarian 107% and 104% | HS 578T breast 129% and 81.2% | NCI/ADR-RES ovarian 99.1% and 109% | T-47D breast 100% and 96.5% | BT-549 breast 106% and 89.8% | MDA-MB-435 melanoma 100% | SW-620 colon 104% | MCF7 breast 91.5% and 101% | HCT-116 colon 106% and 108% | HCC-2998 colon 97.2% and 107% | KM12 colon 112% and 104%

CN(CCCl)CCCCCCCl
inactive: MOLT-4 leukemia 76% | SR leukemia 76.2% | RPMI-8226 leukemia 96.4% | OVCAR-8 ovarian 91.2% | OVCAR-5 ovarian 102% | OVCAR-4 ovarian 110% | SK-OV-3 ovarian 101% | IGROV1 ovarian 88.8% | OVCAR-3 ovarian 112% | NCI/ADR-RES ovarian 98.6% | T-47D breast 84.5% | BT-549 breast 87.4% | MDA-MB-435 melanoma 102% | SW-620 colon 87.5% | MCF7 breast 89.9% | HCT-116 colon 95.2% | HCC-2998 colon 101% | KM12 colon 105%

O=[N+]([O-])OCC(O[N+](=O)[O-])C(CO[N+](=O)[O-])O[N+](=O)[O-] (stereo not given)
inactive: MOLT-4 leukemia 101% | SR leukemia 105% | RPMI-8226 leukemia 108% | OVCAR-8 ovarian 109% | OVCAR-5 ovarian 103% | OVCAR-4 ovarian 122% | SK-OV-3 ovarian 125% | OVCAR-3 ovarian 106% | NCI/ADR-RES ovarian 110% | T-47D breast 108% | BT-549 breast 110% | MDA-MB-435 melanoma 116% | MCF7 breast 107% | HCT-116 colon 104% | HCC-2998 colon 101% | KM12 colon 103%

O=[N+]([O-])OCCOc1ccc([N+](=O)[O-])cc1[N+](=O)[O-]
inactive: MOLT-4 leukemia 101% | SR leukemia 89.5% | RPMI-8226 leukemia 109% | OVCAR-8 ovarian 99% | OVCAR-5 ovarian 103% | OVCAR-4 ovarian 114% | SK-OV-3 ovarian 117% | OVCAR-3 ovarian 126% | HS 578T breast 105% | NCI/ADR-RES ovarian 109% | T-47D breast 99.2% | BT-549 breast 108% | MDA-MB-435 melanoma 99.2% | SW-620 colon 105% | MCF7 breast 91.3% | HCT-116 colon 105% | HCC-2998 colon 106% | KM12 colon 114%

CCOC(=O)Nc1c([N+](=O)[O-])cc([N+](=O)[O-])cc1[N+](=O)[O-]
inactive: SR leukemia 78% | RPMI-8226 leukemia 83.9% | OVCAR-8 ovarian 100% | OVCAR-5 ovarian 139% | OVCAR-4 ovarian 67.8% | SK-OV-3 ovarian 117% | IGROV1 ovarian 106% | OVCAR-3 ovarian 94.1% | HS 578T breast 92.7% | NCI/ADR-RES ovarian 97.1% | T-47D breast 70.8% | BT-549 breast 104% | MDA-MB-435 melanoma 103% | SW-620 colon 107% | MCF7 breast 73.1% | HCT-116 colon 100% | HCC-2998 colon 102% | KM12 colon 109%

O=[N+]([O-])c1ccc(Oc2c([N+](=O)[O-])cc([N+](=O)[O-])cc2[N+](=O)[O-])cc1
inactive: MOLT-4 leukemia 107% | SR leukemia 92.8% | RPMI-8226 leukemia 101% | OVCAR-8 ovarian 102% | OVCAR-5 ovarian 122% | OVCAR-4 ovarian 99.8% | SK-OV-3 ovarian 108% | IGROV1 ovarian 111% | HS 578T breast 97.7% | NCI/ADR-RES ovarian 104% | T-47D breast 113% | BT-549 breast 117% | MDA-MB-435 melanoma 99.4% | SW-620 colon 103% | MCF7 breast 87.4% | HCT-116 colon 102% | HCC-2998 colon 102% | KM12 colon 107%

O=C(Cl)c1c([N+](=O)[O-])cc([N+](=O)[O-])cc1[N+](=O)[O-]
inactive: MOLT-4 leukemia 71.8% | SR leukemia 13.9% | OVCAR-8 ovarian 84.4% | OVCAR-5 ovarian 119% | OVCAR-4 ovarian 73.2% | SK-OV-3 ovarian 126% | IGROV1 ovarian 92.7% | HS 578T breast 15.1% | NCI/ADR-RES ovarian 76% | MDA-MB-435 melanoma 79.1% | SW-620 colon 26.3% | HCT-116 colon 63.9% | HCC-2998 colon 31.2% | KM12 colon 60.4%
active: RPMI-8226 leukemia 5.23% | OVCAR-3 ovarian -73.4% | T-47D breast -0.253% | MCF7 breast -56%

Cc1c([N+](=O)[O-])c(C)c([N+](=O)[O-])c(C)c1[N+](=O)[O-]
inactive: MOLT-4 leukemia 102% | SR leukemia 101% | RPMI-8226 leukemia 100% | OVCAR-8 ovarian 112% | OVCAR-5 ovarian 95.8% | OVCAR-4 ovarian 123% | SK-OV-3 ovarian 107% | IGROV1 ovarian 105% | HS 578T breast 106% | NCI/ADR-RES ovarian 104% | T-47D breast 109% | MDA-MB-435 melanoma 103% | SW-620 colon 105% | MCF7 breast 104% | HCT-116 colon 108% | HCC-2998 colon 103% | KM12 colon 116%

O=[N+]([O-])c1cc([N+](=O)[O-])c(C(F)(F)F)c([N+](=O)[O-])c1O
inactive: MOLT-4 leukemia 93.9% | RPMI-8226 leukemia 101% | OVCAR-8 ovarian 101% | OVCAR-5 ovarian 94.9% | OVCAR-4 ovarian 98.2% | SK-OV-3 ovarian 109% | IGROV1 ovarian 104% | OVCAR-3 ovarian 108% | HS 578T breast 88% | NCI/ADR-RES ovarian 98.7% | BT-549 breast 94.2% | MDA-MB-435 melanoma 101% | SW-620 colon 99.9% | MCF7 breast 94.8% | HCT-116 colon 99.9% | HCC-2998 colon 105% | KM12 colon 97.3%

CCN(CC)CCS
inactive: MOLT-4 leukemia 95.8% | SR leukemia 89.6% | RPMI-8226 leukemia 96.6% | OVCAR-8 ovarian 99.5% | OVCAR-5 ovarian 96% | OVCAR-4 ovarian 115% | SK-OV-3 ovarian 105% | IGROV1 ovarian 93.2% | OVCAR-3 ovarian 96.3% | NCI/ADR-RES ovarian 106% | T-47D breast 104% | BT-549 breast 99.5% | MDA-MB-435 melanoma 104% | SW-620 colon 103% | MCF7 breast 105% | HCT-116 colon 103% | HCC-2998 colon 109% | KM12 colon 97.2%

O=[N+]([O-])c1cc([N+](=O)[O-])c(Nc2ccc(Cl)cc2)c([N+](=O)[O-])c1
inactive: OVCAR-5 ovarian 13.6% | SK-OV-3 ovarian 58.8% | IGROV1 ovarian 12.6% | HS 578T breast 21.8% | BT-549 breast 47.5% | MDA-MB-435 melanoma 67.4% | SW-620 colon 14% | HCT-116 colon 13% | HCC-2998 colon 29.3%
active: MOLT-4 leukemia 5.66% | SR leukemia -13% | RPMI-8226 leukemia -27.9% | OVCAR-8 ovarian 4.44% | OVCAR-3 ovarian -23.3% | NCI/ADR-RES ovarian 7.16% | T-47D breast 8.02% | MCF7 breast 3.64% | KM12 colon 7.59%
